AlphaSeq binding of Ab-14 light chain variants to a spike HR2 peptide

The measurements come from Li et al. 2023 (doi:10.1038/s41467-023-39022-2) through the FLAb antibody collection.

All variants were tested on one target, the spike HR2 peptide PDVDLGDISGINAS (SARS-CoV-2).

Parent scFv Ab-14: VH joined to VL by a 15-residue (Gly4Ser)3 linker. Changes lie in the light chain CDRs alone.
VH: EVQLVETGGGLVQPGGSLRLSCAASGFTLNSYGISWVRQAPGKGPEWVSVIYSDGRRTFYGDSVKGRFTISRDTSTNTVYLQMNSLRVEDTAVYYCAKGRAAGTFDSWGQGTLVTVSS
VL: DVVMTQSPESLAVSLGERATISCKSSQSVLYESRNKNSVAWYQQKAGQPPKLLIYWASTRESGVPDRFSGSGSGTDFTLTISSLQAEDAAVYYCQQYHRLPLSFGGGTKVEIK

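The starting antibody came from a phage panning campaign against this peptide. The variants were designed computationally from a first round of random CDR variants and then made and measured. Their group label is 14L_GP_Gibbs (GP: Gaussian process model; Gibbs: Gibbs sampling; a sequence that several methods proposed may carry one label only). The scFvs were displayed on barcoded MATa yeast, the peptide on MATalpha yeast. Binding brings cells together so that they mate, and sequencing counts the barcode pairs among the diploids. Scores were corrected for input abundance and mapped to Kd with protein pairs of known affinity run in the same pool. There are six technical replicates.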

Variants are written as CDR1, CDR2 and CDR3 of the light chain (limits as in the source). Parent: KSSQSVLYESRNKNSVA, WASTRES, QQYHRLPLS. Values are log10 of the apparent Kd in nM; lower means stronger binding. Averages over replicates are reported, and they cover detected replicates only. "nd" marks a missing value. The strain was present, yet no cells mated with the target were sequenced in that replicate, which points to weak or no binding. A sequence measured in both rounds can read differently, since the two assays cover different ranges. In the paper, a design with two or fewer of six values counts as a poor binder. As a blank, each scFv also met three strains without target: over all light chain designs, 4% of these pairings were detected, typically at 2.64 and seldom below 1.59. For each scFv, signals with the empty controls are counted beside the result, with their mean in brackets. Of ten entries with the parent sequence, four were seen in most replicates (averages 0.34 to 2.37), three in one and three in none, so single entries are noisy.

CDR-L1 | CDR-L2 | CDR-L3 | log10 Kd, replicates | mean log10 Kd (nM) | signal with controls
KVSQAQLYESRNKNSVA | QASHREQ | QQYHRLPLS | 0.12 0.25 -0.12 0.15 0.32 0.21 | 0.15 | 1 of 18 (2.73)
KISQSWGYESRNSNSVA | EASTRED | QDYHRLPLS | 0.62 0.62 0.50 0.64 0.66 0.43 | 0.58 | 0 of 18
KSMYSCLGESRNCNSVA | SASTREL | QQYHRLPLS | 0.64 0.08 0.11 0.11 -0.01 -0.03 | 0.15 | 1 of 18 (3.08)
KLSMSEDYESRMCNSVA | EASQREE | QQYHRLPLS | 1.04 0.61 0.45 0.31 0.40 0.50 | 0.55 | 1 of 18 (1.87)
KWSMLVMGESRNKNSVA | NASTRES | QQYHRLPLS | -0.07 0.05 -0.19 -0.11 0.27 0.19 | 0.02 | 0 of 18
KFSYGNLYEDRNQNSVA | NASQRLQ | QQYHRLPLS | 0.21 0.54 0.32 0.06 0.28 0.69 | 0.35 | 3 of 18 (1.97)
KIDQWKLGESVNKNSVA | NASTRME | QQYHRLPLS | -0.04 -0.13 -0.37 -0.33 -0.34 -0.03 | -0.21 | 2 of 18 (2.66)
KCSLSQEYESRQKNSVA | NASTRCS | QQYHRLPLS | 2.37 1.55 1.74 1.06 1.34 1.56 | 1.60 | 2 of 18 (2.93)
KLMGSMLYEQRMTNSVA | NASQRMS | QQYHRLPLS | 0.28 -0.01 -0.08 0.02 -0.06 0.25 | 0.07 | 2 of 18 (2.00)
KFQGMVHMGDRNKNSVA | WASTRLQ | QQYHRLPLS | nd nd nd nd 1.65 nd | 1.65 | 0 of 18
KQDQSCGGEQRNKNSVA | SASTRCE | QQYHRLPLS | 0.87 1.11 0.68 0.87 0.70 0.51 | 0.79 | 0 of 18
KFVQSWLYESRNKNNVA | HASQRCS | QQYHRLPLS | 0.10 -0.04 -0.11 0.21 0.20 0.03 | 0.07 | 1 of 18 (2.58)
KMSQSMWYESRNRNSVA | NASNRLS | QQYHRLPLS | 0.70 0.49 1.11 0.11 0.10 1.95 | 0.74 | 0 of 18
KLQQSMLYESRWHNSVA | HASVRCD | QQYHRLPLS | 1.43 1.82 1.30 2.27 1.70 1.68 | 1.70 | 2 of 18 (3.00)
KYDFSVLEESRNSNAVA | NASTREE | QDYHRLPLS | 0.51 0.41 0.01 0.33 0.00 0.32 | 0.26 | 2 of 18 (3.42)
KLSQLGLYGQRNKMSVA | DASQRES | QQYHRLPLS | -0.09 -0.10 -0.19 -0.39 -0.28 -0.22 | -0.21 | 0 of 18
KFSYSNPYETRNKNSVA | EASTREE | QQYHRLPLS | -0.18 -0.12 -0.30 -0.31 -0.26 -0.08 | -0.21 | 4 of 18 (3.68)
KVSQSTLYEDGNKNSVA | NASVRES | QQYHRLPLS | 1.39 0.87 0.84 0.52 0.72 1.05 | 0.90 | 2 of 18 (2.28)
KLAQGWLYESRNKNSVA | NASQREH | QQYHRLPLS | -0.07 -0.15 -0.63 -0.19 -0.08 -0.25 | -0.23 | 1 of 18 (2.06)
KLSQSVLYESRNKNQVA | GSSTRMS | QQYHRLPLS | 0.24 0.22 0.28 0.27 0.18 0.38 | 0.26 | 0 of 18
KYAFSDLNESRNKNSVA | EASTRES | QQYHRLPLS | 0.28 0.10 0.16 -0.09 -0.20 0.39 | 0.11 | 1 of 18 (2.26)
KMSPSHLYESRNKNSVA | NASTRET | QQYHRLPLS | 0.16 0.42 -0.06 -0.06 0.19 0.19 | 0.14 | 0 of 18
KVSMSQLYESRNFNSVA | NASTREE | QQYHRLPLS | 1.17 0.84 0.84 1.05 0.62 1.05 | 0.93 | 1 of 18 (2.59)
KWSQSDLLESRNHNSVA | HASTRCS | QQYHRLPLS | 2.64 1.36 1.29 1.64 1.51 1.27 | 1.62 | 0 of 18
KVSPSWLYEDRNKNSVA | QASQRCS | QQYHRLPLS | 0.19 -0.10 0.02 -0.07 -0.20 0.10 | -0.01 | 1 of 18 (3.60)
KASQSVLYESRVKNSVA | EASMRES | QQYHRLPLS | 0.98 0.85 0.67 0.51 0.51 0.80 | 0.72 | 0 of 18
KLYQSQLYDSRNKNSVA | QASHREM | QQYHRLPLS | 0.30 -0.07 -0.01 -0.21 -0.10 0.03 | -0.01 | 0 of 18
KMSQSWLMESRNSNSVA | EASTRLS | QQYHRLPLS | 0.10 0.24 0.06 0.20 0.09 0.21 | 0.15 | 2 of 18 (2.38)
IVSQSMLGESRNKNSVA | NASTREN | QQYHRLPLS | -0.08 -0.11 -0.13 -0.20 -0.12 0.00 | -0.11 | 1 of 18 (3.64)
KSSWSVEYEDRASNSVA | NASQREW | QQYHRLPLS | 0.18 0.29 0.10 0.11 0.36 0.37 | 0.23 | 2 of 18 (2.89)
KVDQSVLYKSRNKNAVA | QASTRES | QDYHRLPLS | 0.17 0.65 0.03 0.06 0.33 0.58 | 0.30 | 0 of 18
KLSMQVMMWSRNTNSVA | SANTREE | QQYHRLPLS | 1.00 0.47 0.30 -0.21 0.24 0.97 | 0.46 | 0 of 18
KLDQSVEEKSRNKNSVA | EASTRES | QDYHRLPLS | 0.34 0.16 0.41 -0.04 0.30 0.37 | 0.26 | 0 of 18
KLMGSMEYESRNKNAVA | EASTRES | QQYHRLPLS | 0.10 -0.05 0.12 -0.19 -0.25 0.28 | 0.00 | 0 of 18
KLSMGVDYGDRNKNQVA | HASTRES | QQYHRLPLS | 0.25 0.29 0.17 0.14 0.17 0.45 | 0.25 | 2 of 18 (2.72)
KLEPFEEYESRNKNSVA | SASTRES | QQYHRLPLS | -0.02 -0.12 0.12 -0.12 -0.27 0.27 | -0.03 | 0 of 18
KAQFSCLYESRNQNSVA | SASQRLS | QQYHRLPLS | 0.20 0.21 0.22 -0.11 -0.02 0.20 | 0.12 | 3 of 18 (3.21)
KVMQSQLGEMRNVNSVA | NASTRES | QQYHRLPLS | 0.03 0.10 0.14 -0.11 -0.10 0.15 | 0.03 | 4 of 18 (3.28)
KSAYSEGYESGNKNSVA | SASTRSS | QQYHRLPLS | 0.15 0.08 0.18 0.03 -0.03 0.09 | 0.08 | 2 of 18 (2.38)
KCEQSWLYESRVKNNVA | NASQRES | QQYHRLPLS | 0.67 0.39 0.32 0.27 0.38 0.38 | 0.40 | 1 of 18 (2.75)
KLSQSMLYESRNKNSVA | NASTREE | GQYHRLPLT | 0.24 -0.16 0.11 -0.18 -0.11 -0.05 | -0.02 | 0 of 18
KVSLSVLLESRNVNAVA | EASTRES | QQYHRLPLS | -0.36 1.99 -0.37 0.09 -0.19 0.46 | 0.27 | 0 of 18